# Laboratory results as given in PubChem BioAssay AID485341 (National Center for Advancing Translational Sciences (NCATS), 2010).
# Sequences of proteins named here, by UniProt entry; tags and fusion partners are left off.
# UniProt P00811, whole entry: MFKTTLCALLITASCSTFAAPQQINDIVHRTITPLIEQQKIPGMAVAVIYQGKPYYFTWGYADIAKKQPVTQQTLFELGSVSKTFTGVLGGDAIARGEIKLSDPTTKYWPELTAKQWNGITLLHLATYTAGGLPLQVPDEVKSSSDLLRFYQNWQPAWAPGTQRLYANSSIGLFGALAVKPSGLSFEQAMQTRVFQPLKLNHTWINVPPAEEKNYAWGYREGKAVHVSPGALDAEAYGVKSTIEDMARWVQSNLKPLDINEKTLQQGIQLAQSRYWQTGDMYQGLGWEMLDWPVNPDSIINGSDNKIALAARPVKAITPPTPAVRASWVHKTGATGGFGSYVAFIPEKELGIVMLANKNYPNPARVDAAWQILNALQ
# The entries are a selection whose mix differs from that of the whole data set. Some tests of the compounds listed are not included; inactive here does not mean inactive elsewhere. Activity calls are given as the source filed them. Calls follow the shape of the dose curve; as a rule, active = well fitted inhibition curve with a large enough effect; inconclusive = small, poorly fitted or top-dose-only effect; inactive = no such curve, though single readings can be large or run the other way.
# Target: Beta-lactamase (Escherichia coli (strain K12)) (UniProt P00811)
# Test: qHTS Inhibitors of AmpC Beta-Lactamase (assay without detergent); also: nearly all actives have a fitted effect of over 20% in size
# Details: AmpC nitrocefin hydrolysis, absorbance 480 nm, 0.0001% Triton; at 57.1 µM (top of the series)
# Experimental: NIH Molecular Libraries Probe Production Network [MLPCN] NIH Chemical Genomics Center [NCGC] Assay Provider: Professor Brian Shoichet, UCSF Assay Overview: This aggregation profiling approach exploits the sensitivity of aggregate formation to detergent. Inhibition of b-lactamase is measured in the presence and absence of 0.01% Triton X-100. This particular assay had the prescence of 0.01% Triton X-100. See Pubchem assay "Promiscuous and Specific Inhibitors of AmpC Beta-Lactamase (assay without detergent)" for related screen. Compounds that inhibit only in the absence of detergent are considered likely promiscuous aggregators. A screen of 1,030 compounds was performed in Brian Shoichet's lab in 96-well format. AmpC activity was measured by following the absorbance at 480 nm. Nitrocefin is a chromogenic substrate: while nitrocefin is yellow (lmax 390 nm), the product of its hydrolysis is red (lmax 486 nm, 17,000 M-1). AmpC beta lactamase was provided by Shoichet Lab, UCSF.
# Buffer: 20 mM phosphate buffer, pH 7.0 Triton X-100: No Detergent screen: 0.0001%, Detergent screen: 0.01%. Reagents/Controls: Buffer in columns 3 and 4 as negative control (no enzyme). 5.3 nM AmpC in columns 1, 2, 5-48. Titration of UCSF compound 9 control (from 10 mM, then 1:2) pin-transferred to column 2. Column 1 is neutral (100% activity). Assay Steps: Six uL of reagents were dispensed to 1536-well Greiner black clear bottom plates. Compounds and controls (23 nL) were transferred via Kalypsys PinTool. The plates were incubated for 15 min at room temperature, and then 2 uL of 800 uM solution of nitrocefin was added to start the reaction. The plates were immediately transferred to and read every 20 seconds for 4 min on ViewLux (Perkin-Elmer) High-throughput CCD imager using 480 nm absorbance protocol. During dispense, reagent bottles were kept submerged into 4 deg C water bath. Keywords: NIH Roadmap, MLSCN, MLI, MLSMR, qHTS, NCGC, AmpC Beta-Lactamase, Aggregation
row,Structure (SMILES),"activity change, negative = inhibition"
1,CC(C)N1C(=O)CC2(CCN(CCOC(=O)C(O)(c3ccccc3)c3ccccc3)CC2)C1=O,inactive: 80.9%
2,CCN(CC)CC(C)C(C)OC(=O)C(O)(c1ccccc1)c1ccccc1 (centres undefined),inactive: 4.44%
3,COc1cc(SC)ccc1C(=O)NCC1(N(C)C)CCCCC1,inactive: -4.39%
4,Cc1ccc(C(=O)NCC2(N3CCCCC3)CCCCC2)cc1,inactive: -20.4%
5,O=C(NCC1(N2CCCCC2)CCCCC1)c1cc([N+](=O)[O-])ccc1Cl,inactive: -38.5%
6,CN1[C@@H]2CC[C@H]1CC(OC(=O)C(O)(c1ccccc1)c1ccccc1)C2 (some centres undefined),inactive: 2.01%
7,C=CCN1CCN(CCOC(=O)C(O)(c2ccccc2)c2ccccc2)CC1,inactive: 2.18%
8,O=C(NCC1(N2CCCCC2)CCCCC1)c1cc(F)c(F)cc1Cl,inactive: -11.3%
9,Cc1cc(C(=O)NCC2(N3CCCCC3)CCCCC2)ccc1[N+](=O)[O-],inactive: -11.6%
10,CCN1CCCC(OC(=O)C2(O)c3ccccc3C=Cc3ccccc32)C1 (centres undefined),inactive: -14.4%
11,O=C(NCC1(N2CCCCC2)CCCCC1)c1cccc(Br)c1,inactive: -24.7%
12,COc1ccc(C(=O)NCC2(N(C)C)CCCCC2)cc1,inactive: 20.4%
13,Cc1ccccc1C(=O)NCC1(N2CCCCC2)CCCCC1,inactive: -12.9%
14,CN(C)C1CCCC1OC(=O)C(O)(c1ccccc1)c1ccccc1 (centres undefined),inactive: -3.55%
15,CN(C)c1ccc(C(=O)NCC2(N(C)C)CCCCC2)cc1,inactive: -11.2%
16,COc1cccc(C(=O)NCC2(N3CCCCC3)CCCCC2)c1,inactive: -12.6%
17,COc1ccc(Cl)cc1C(=O)NCC1(N(C)C)CCCCC1,inactive: 0.202%
18,O=C(NCC1(N2CCCCC2)CCCCC1)c1cccc(Cl)c1,inactive: -15.8%
19,CN(C)C1(CNC(=O)c2ccc(Br)cc2)CCCCC1,inactive: -14.8%
20,COc1cc(C(=O)NCC2(N(C)C)CCCCC2)c([N+](=O)[O-])cc1OC,inactive: -7.44%
21,COc1ccc(Br)c(C(=O)NCC2(N3CCCCC3)CCCCC2)c1,inactive: 58.5%
22,CN(C)c1cccc(C(=O)NCC2(N(C)C)CCCCC2)c1,inactive: -7.25%
23,CC(C)Oc1ccc(C(=O)NCC2(N(C)C)CCCCC2)cc1,inactive: -1.34%
24,O=C(OC1CN2CCC1CC2)C(CO)(c1ccccc1)c1ccccc1 (centres undefined),inactive: -23.1%
